Where a name gives a salt, the structure may show the parent alone. Read-outs that look alike come from different tables or passages of the source.
Key:
Assay in all cases: cells
Conditions in all cases: Homo sapiens
K562 cells = test system: K562 cells
MV-4-11 cells = test system: MV-4-11 cells
MOLM-13 cells = test system: MOLM-13 cells
[1] = K562, 72 h, read-out: GI50 (μM) Day3 K562
[2] = MV4-11, 72 h, read-out: GI50 (μM) Day3 MV4;11, MV4;11, Day3
[3] = MOLM-13, 72 h, read-out: GI50 (μM) Day3 MOLM-13, MOLM-13, Day3
[4] = K562, 168 h, read-out: GI50, cell growth inhibitory activity, K562, day 7
[5] = MV4-11, 168 h, read-out: GI50, cell growth inhibitory activity, MV-4-11, day 7, MV-4-11 cells, cultured 7 days, assigned by order and values
[6] = MOLM-13, 168 h, read-out: GI50, cell growth inhibitory activity, MOLM-13, day 7, MOLM-13 cells, cultured 7 days, assigned by order and values
[7] = MOLM-13, 168 h, read-out: GI50, cell growth inhibitory activity, MOLM-13, day 7

## O=C1CCC(c2ccc(CN[C@H]3CCC[C@@H](Nc4ncnc5sc(CC(F)(F)F)cc45)C3)cc2)N1 (mixture of isomers) [Example 39, 5-[4-({[(1S,3R)-3-{[6-(2,2,2-trifluoroethyl)thieno[2,3-d]pyrimidin-4-yl[amino}cyclohexyl]amino}methyl)phenyl]pyrrolidin-2-one hydrochloride (diastereomer mixture)]
K562 cells; [1]
  GI50: > 10 µM
MV-4-11 cells; [2]
  GI50: 8.14 µM
MOLM-13 cells; [3]
  GI50: > 10 µM

## CN(c1ncnc2sc(CC(F)(F)F)cc12)[C@@H]1CC[C@H](NCc2ccc(S(=O)(=O)N3CCCC(O)C3)cc2)C1 (mixture of isomers) [Example 57, l-[4-({[(1S,3R)-3-{methyl[6-(2,2,2trifluoroethyl)thieno[2,3-d]pyrimidin-4-yl]amino}cyclopentyl]amino}methyl)benzene-1-sulfonyl]piperidin-3-ol hydrochloride (diastereomer mixture)]
K562 cells; [1]
  GI50: 6.3 µM
K562 cells; K562, 168 h, read-out: GI50 (μM) Day7 K562
  GI50: 3.03 µM
MV-4-11 cells; [2]
  GI50: 1.16 µM
MV-4-11 cells; MV4-11, 168 h, read-out: GI50 (μM) Day7 MV4;11, MV4;11, Day7
  GI50: 0.689 µM
MOLM-13 cells; [3]
  GI50: 2.14 µM
MOLM-13 cells; MOLM-13, 168 h, read-out: GI50 (μM) Day7 MOLM-13, MOLM-13, Day7
  GI50: 1.56 µM

## COc1cc(-c2ccc(CN[C@H]3C[C@@H](O)[C@@H](N(C)c4ncnc5sc(CC(F)(F)F)cc45)C3)cc2)nnc1OC1CCCOC1 (mixture of isomers) [Example 108, (1R,2S,4R)-4-{[(4-{5-methoxy-6-[(oxan-3-yl)oxy]pyridazin-3-yl}phenyl)methyl]amino}-2-{methyl[6-(2,2,2-trifluoroethyl)thieno[2,3-d]pyrimidin-4-yl]amino}cyclopentan-1-ol hydrochloride]
K562 cells; [4]
  GI50: > 5 µM
MV-4-11 cells; [5]
  GI50: 0.0234 µM
MOLM-13 cells; [6]
  GI50: 0.0622 µM

## COc1nc(N(C)[C@H]2C[C@@H](NCC3CC=C(c4cc(OC)c(OC)nn4)CC3)C[C@H]2O)c2cc(CC(F)(F)F)sc2n1 (mixture of isomers) [Example 125, (1R,2S,4R)-4-({[4-(5,6-dimethoxypyridazin-3-yl)cyclohex-3-en-1-yl]methyl}amino)-2-{[2-methoxy-6-(2,2,2-trifluoroethyl)thieno[2,3-d]pyrimidin-4-yl](methyl)amino}cyclopentan-1-ol hydrochloride]
K562 cells; [4]
  GI50: 3.75 µM
MV-4-11 cells; [5]
  GI50: 0.0769 µM
MOLM-13 cells; [6]
  GI50: 0.154 µM

## COc1cncc(-c2ccc(CN[C@H]3C[C@@H](O)C[C@@H](Nc4ncnc5sc(CC(F)(F)F)cc45)C3)cc2)c1 (single isomer, unassigned) [Example 15A, Hydrochloride]
K562 cells; [1]
  GI50: > 10 µM
MV-4-11 cells; [2]
  GI50: 0.269 µM
MOLM-13 cells; [3]
  GI50: 4.41 µM

## COc1cncc(-c2ccc(CN[C@@H]3C[C@H](O)C[C@H](Nc4ncnc5sc(CC(F)(F)F)cc45)C3)cc2)c1 (single isomer, unassigned) [Example 15B, Hydrochloride]
K562 cells; [1]
  GI50: 5.42 µM
MV-4-11 cells; [2]
  GI50: 1.88 µM
MOLM-13 cells; [3]
  GI50: 3.15 µM

## N#Cc1cc2cc(CN[C@@H]3CC[C@@H](Nc4ncnc5sc(CC(F)(F)F)cc45)C3)ccc2[nH]1 [Example 1, 5-({[(1R,3R)-3-{[6-(2,2,2-trifluoroethyl)thieno[2,3-d]pyrimidin-4-yl]amino}cyclopentyl]amino}methyl)-1H-indole-2-carbonitrile Hydrochloride]
K562 cells; [1]
  GI50: 5.09 µM
MV-4-11 cells; [2]
  GI50: 1.79 µM

## Cc1c(CN[C@H]2CC[C@@H](N(C)c3ncnc4sc(CC(F)(F)F)cc34)C2)ccc2c1cc(C#N)n2Cc1cn[nH]c1 [Example 2, 4-methyl-5-({[(1S,3R)-3-{methyl[6-(2,2,2-trifluoroethyl)thieno[2,3-d]pyrimidin-4-yl]amino}cyclopentyl]amino}methyl)-1-[(1H-pyrazol-4-yl)methyl]-1H-indole-2-carbonitrile Hydrochloride]
K562 cells; [1]
  GI50: 2.81 µM
MV-4-11 cells; [2]
  GI50: 0.33 µM

## CN(c1ncnc2sc(CC(F)(F)F)nc12)[C@@H]1CC[C@H](NCc2ccc3[nH]c(C#N)cc3c2)C1 [Example 3, 5-({[(1S,3R)-3-{methyl[2-(2,2,2-trifluoroethyl)[1,3]thiazolo[5,4-d]pyrimidin-7-yl]amino}cyclopentyl]amino}methyl)-1H-indole-2-carbonitrile Hydrochloride]
K562 cells; [1]
  GI50: 3.78 µM
MV-4-11 cells; [2]
  GI50: 0.748 µM

## CN(c1ncnc2cc(CC(F)(F)F)sc12)[C@@H]1CC[C@H](NCc2ccc3[nH]c(C#N)cc3c2)C1 [Example 4, 5-({[(1S,3R)-3-{methyl[6-(2,2,2-trifluoroethyl)thieno[3,2-d]pyrimidin-4-yl]amino}cyclopentyl]amino}methyl)-1H-indole-2-carbonitrile]
K562 cells; [1]
  GI50: 4.37 µM
MV-4-11 cells; [2]
  GI50: 1.32 µM

## CN(c1ncnc2ccc(CC(F)(F)F)cc12)[C@@H]1CC[C@H](NCc2ccc(O)cc2)C1 [Example 5, 4-({[(1S,3R)-3-{methyl[6-(2,2,2-trifluoroethyl)quinazolin-4-yl]amino}cyclopentyl]amino}methyl)phenol Hydrochloride]
K562 cells; [1]
  GI50: > 10 µM
MV-4-11 cells; [2]
  GI50: 3.12 µM

## CN(c1ncnc2sc(CC(F)(F)F)cc12)[C@@H]1CC[C@H](NCC2CCCCC2)C1 [Example 28, (1R,3S)-N^3-(cyclohexylmethyl)-N^1-methyl-N^1-[6-(2,2,2-trifluoroethyl)thieno[2,3-d]pyrimidin-4-yl]cyclopentane-1,3-diamine hydrochloride]
K562 cells; [1]
  GI50: 6.31 µM
MV-4-11 cells; [2]
  GI50: 5.34 µM

## CN(c1ncnc2sc(CC(F)(F)F)cc12)[C@@H]1CC[C@H](NCc2ccc(OCCN3CCOCC3)cc2)C1 [Example 30, (1R,3S)-N^1-methyl-N^3-({4-[2-(morpholin-4-yl)ethoxy]phenyl}methyl)-N^1-[6-(2,2,2-trifluoroethyl)thieno[2,3-d]pyrimidin-4-yl]cyclopentane-1,3-diamine hydrochloride]
K562 cells; [1]
  GI50: 2.34 µM
MV-4-11 cells; [2]
  GI50: 0.867 µM

## CN(c1ncnc2sc(CC(F)(F)F)cc12)[C@@H]1CC[C@H](NCc2ccc(OCCO)c(F)c2)C1 [Example 31, 2-[2-fluoro-4-({[(1S,3R)-3-{methyl[6-(2,2,2-trifluoroethyl)thieno[2,3-d]pyrimidin-4-yl]amino}cyclopentyl]amino}methyl)phenoxy]ethan-1-ol hydrochloride]
K562 cells; [1]
  GI50: > 10 µM
MV-4-11 cells; [2]
  GI50: 1.29 µM

## CN(c1ncnc2sc(CC(F)(F)F)cc12)[C@@H]1CC[C@H](NCc2cnn(-c3ccccc3)c2)C1 [Example 32, (1R,3S)-N^1-methyl-N^3-[(1-phenyl-1H-pyrazol-4-yl)methyl]-N^1-[6-(2,2,2-trifluoroethyl)thieno[2,3-d]pyrimidin-4-yl]cyclopentane-1,3-diamine hydrochloride]
K562 cells; [1]
  GI50: 5.59 µM
MV-4-11 cells; [2]
  GI50: 2.43 µM

## COc1nc(N(C)[C@H]2C[C@@H](NCc3ccc(-c4cc(OC)c(OC(F)F)nn4)cc3)C[C@H]2O)c2cc(CC(F)(F)F)sc2n1 [Example 119, (1R,2S,4R)-4-[({4-[6-(difluoromethoxy)-5-methoxypyridazin-3-yl]phenyl}methy)amino]-2-{[2-methoxy-6-(2,2,2-trifluoroethyl)thieno[2,3-d]pyrimidin-4-yl](methyl)amino}cyclopentan-1-ol hydrochloride]
MOLM-13 cells; [7]
  GI50: 0.0637 µM

## [2H]C([2H])([2H])N(c1ncc(-c2ccc(CN[C@H]3C[C@@H](O)[C@@H](N(C)c4ncnc5sc(CC(F)(F)F)cc45)C3)cc2)cc1OC)C([2H])([2H])[2H] [Example 122, (1R,2S,4R)-4-({[4-(6-{bis[(^2H3)methyl]amino}-5-methoxypyridin-3-yl)phenyl]methyl}amino)-2-{methyl[6-(2,2,2-trifluoroethyl)thieno[2,3-d]pyrimidin-4-yl]amino}cyclopentan-1-ol]
MOLM-13 cells; [7]
  GI50: 0.236 µM
